From US4474790A, “Thioalkylamide of nicotinic acid 1-oxide, its salts, and pharmaceutical compositions” (SANOFI, priority 1981, dated 1984)

Protein sequences, listed by entry. Tags and fused reporters are not part of them.
UniProt P47747, whole entry: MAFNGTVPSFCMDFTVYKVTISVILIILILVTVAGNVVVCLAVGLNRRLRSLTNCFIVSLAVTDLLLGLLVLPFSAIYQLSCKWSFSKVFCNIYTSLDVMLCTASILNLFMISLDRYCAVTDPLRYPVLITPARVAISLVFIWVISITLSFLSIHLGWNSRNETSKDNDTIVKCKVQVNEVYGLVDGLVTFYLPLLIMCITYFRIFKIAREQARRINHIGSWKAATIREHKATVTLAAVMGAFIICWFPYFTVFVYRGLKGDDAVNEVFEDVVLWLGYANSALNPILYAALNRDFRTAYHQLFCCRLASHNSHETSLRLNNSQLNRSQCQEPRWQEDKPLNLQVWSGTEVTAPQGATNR

Experiments:
[1] = target: T1, gastric histamine H2 receptor (Cavia porcellus, UniProt P47747); set-up: species or system guinea pig
T1 construct: isolated stomach mucous membrane of the Guinea pig; from tissue; host or cells: isolated guinea pig stomach mucous membrane

[2] = target: T2, cardiac histamine H2 receptor (Cavia porcellus, UniProt P47747); set-up: species or system guinea pig
T2 construct: isolated right atrium of the Guinea pig; from tissue; host or cells: isolated guinea pig right atrium

With `CN/C(=N/CCSCc1nc[nH]c1C)NC#N` [cimetidine, 2-cyano-1-methyl-3-[2[(5-methylimidazol-4-yl)methylthio]ethyl]guanidine, reference compound] the IC50 [1] was 6.6 µM and the IC50 [2] was 0.4 µM.
